{"source": "patent EP0520823A2", "about": "“Non-substrate peptide inhibitors of farnesyl protein transferase” (MERCK & CO. INC., priority 1991, dated 1992)", "system": "partially pure bovine brain farnesyl-protein transferase", "assay": "Tetrapeptides tested as farnesylation substrates ([3H]FPP, TLC, autoradiography)", "assay_type": "biochemical", "conditions": "peptide 200 µM, 0.5 µM [3H] FPP, 30 min. at 30°C", "protocol": "When a peptide was used as the acceptor substrate, there were two changes to the assay: (1) Ras protein was excluded and, (2) the reactions were stopped by the additon of one tenth volume of 0.5 M EDTA. […] After drying under vacuum, the plates were sprayed with […] exposed to X-ray film at -70°C. […] These Rf values reflect TLC conditions using ethylacetate:pyridine: acetic acid:water (10:5:1:3) as the eluent. […] CAIS (Rf=0.84) and CAIM (Rf=0.83)). Quenched reaction mixtures containing peptide, farnesyldiphosphate and farnesyl-protein transferase were separated by TLC followed by visualization of the radioactive species by autoradiography. […] Control peptides having a […] substitution were not substrates. […] Autoradiographic exposure time was overnight (15-20 hr).", "data": [{"compound": "CC(C)C[C@H](NC(=O)[C@@H](NC(=O)[C@@H](N)CS)C(C)C)C(=O)N[C@@H](CO)C(=O)O", "note": "[CVLS, Cys-Val-Leu-Ser]", "values": [{"measurement": "Farnesylation substrate", "result": "+ (+ > 90% [^3H] farnesyl diphosphate converted to [^3H] farnesyl tetrapeptide)"}]}]}
